In patent US11806555B2, “Methods for treating hair loss disorders” (THE TRUSTEES OF COLUMBIA UNIVERSITY IN THE CITY OF NEW YORK, priority 2010, dated 2023):

Tested on: telogen hair follicles of normal C57BL/6 mice
Test: induction of anagen by topical treatment of normal mice in telogen
Conditions: mouse, in vivo

## N#CCC(C1CCCC1)n1cc(-c2ncnc3[nH]ccc23)cn1 (centres unmarked) [INCB018424]
  number of hair follicles vs vehicle treated: greater
  thickness of hair follicles vs vehicle treated: greater
